The results in this text go back to PubChem BioAssay AID624291 (National Center for Advancing Translational Sciences (NCATS), 2012).

The entries are a selection whose mix differs from that of the whole data set. Inconclusive results are not listed. The source made the active and inactive calls. Calls come from the whole dose curve; as a rule, active = well fitted activation curve with a large enough effect; inconclusive = small, poorly fitted or top-dose-only effect; inactive = no such curve, though single readings can be large or run the other way.

This assay in a line: qHTS for Activators of Integrin-Mediated Alleviation for Muscular Dystrophy.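 Note: 100% = response of the positive control SU9516; nearly all actives have a fitted effect of over 60% in size.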 The conditions noted are these: alpha7betagal myoblasts, beta-gal FDG fluorescence, 48 h; at 38.3 µM (top of the series) unless noted.
Regarding `COC(=O)C1(C)COP(=O)(N2CCCCCC2)OC1` (centres undefined), the activation is inactive: -0.89%.
With `CC(C)c1ccc(OP(=O)(Nc2ccccn2)Oc2ccccc2F)cc1` (centres undefined), the activation is inactive: -23.1%.
Turning to `ClCCSc1nnc(-c2cccnc2)o1`, the activation is inactive: 2.84%.
`Cc1ccc(OP(=O)(Nc2ccc([N+](=O)[O-])cn2)Oc2ccc(C)cc2)cc1`: the activation was inactive: -12.1%.
For `O=[N+]([O-])c1ccc(-c2cc([N+](=O)[O-])c(O)c([N+](=O)[O-])c2)cc1` the value was inactive: 6.42%.
For the compound `C[As](=O)(O)c1cccc(C(=O)O)c1`, the activation was inactive: 10.1%.
`O=[As](O)(c1ccc(O)cc1)c1ccccc1O`: the activation was inactive: 3.49%.
For `O=[N+]([O-])c1ccc(Nc2ccc(Oc3ccc([N+](=O)[O-])cc3[N+](=O)[O-])cc2)c([N+](=O)[O-])c1`, the activation was inactive: -4.1%.
In the case of `O=P(Nc1ccccn1)(c1cccc2ccccc12)c1cccc2ccccc12`, the activation was inactive: -7.19%.
For `Cc1cc(SC(NC=O)C(Cl)(Cl)Cl)ncn1` (centres undefined) the value was inactive: -8.39%.
The result for `Cc1cc(SC(NC(=O)c2ccccc2)C(Cl)(Cl)Cl)nc(C(C)C)n1` (centres undefined) reads inactive: 7.47%; that for `CCCCOc1ccc(C(=O)NCC2(N3CCCCC3)CCCCC2)cc1OC`, inactive: -7.91%.
On to `COP(=O)(OC)N1CC1c1ccccc1` (centres undefined), for which the activation is inactive: 13.5%.
For `CC1CCNP(=O)(N(CCCl)CCCl)O1` (centres undefined) the value was inactive: 18.5%.
For `CCOC(=O)Nc1ccc([As](=O)(O)O)c(O)c1`, the activation is inactive: -14.1%.
Regarding `O=C(O)C(O)c1ccc(N(CCCl)CCCl)cc1` (centres undefined), the activation was inactive: 4.88%.
`CCC(C)N(CC(C)C)C(=S)SC(NC(C)=O)C(Cl)(Cl)Cl` (centres undefined): the activation was inactive: -53.7%.
Take `CCOC(=O)c1ccc(NC(=O)C(C)(CCl)SC)cc1` (centres undefined): the activation was inactive: 7.55%.
The result for `CSc1ccc(Nc2c([N+](=O)[O-])cc([N+](=O)[O-])cc2[N+](=O)[O-])cc1` reads inactive: -67.3%; that for `O=C(OC1CN2CCC1CC2)c1cccc([N+](=O)[O-])c1` (centres undefined), inactive: -21.8%; that for `O=C(Nc1ccncc1[N+](=O)[O-])c1ccc([N+](=O)[O-])cc1[N+](=O)[O-]`, inactive: -3.57%.
Consider `O=C(COc1ccccc1)OC1CN2CCC1CC2` (centres undefined), for which the activation is inactive: -1.92%.
For `O=C(O)C(=O)c1ccc(N(CCCl)CCCl)cc1`, the activation was inactive: -11.2%.
With `COP1(=S)c2c(C)nn(CCC#N)c2N=C(c2ccc(F)cc2)N1C` (centres undefined), the activation was inactive: 15.7%.
